Key:
[1] = molecular target: Dual specificity tyrosine-phosphorylation-regulated kinase 1A (Rattus norvegicus, UniProt Q63470); experiment: Inhibition of recombinant rat DYRK1A (1 to 499 residues ) expressed in bacterial expression system using KKISGRLSPIMTEQ as substrate measured after 30 mins in presence of ATP by ADP-Glo assay
[2] = molecular target: Dual specificity protein kinase CLK1 (Mus musculus, UniProt P22518); experiment: Inhibition of recombinant mouse CLK1 expressed in bacteria using GRSRSRSRSRSR as substrate in presence of ATP measured after 30 mins by ADP-Glo assay

The chains behind the UniProt entries cited, without tags or fusion partners. Where a name states a change or a piece, a line headed by the entry shows the natural chain unless it says otherwise.
UniProt P22518: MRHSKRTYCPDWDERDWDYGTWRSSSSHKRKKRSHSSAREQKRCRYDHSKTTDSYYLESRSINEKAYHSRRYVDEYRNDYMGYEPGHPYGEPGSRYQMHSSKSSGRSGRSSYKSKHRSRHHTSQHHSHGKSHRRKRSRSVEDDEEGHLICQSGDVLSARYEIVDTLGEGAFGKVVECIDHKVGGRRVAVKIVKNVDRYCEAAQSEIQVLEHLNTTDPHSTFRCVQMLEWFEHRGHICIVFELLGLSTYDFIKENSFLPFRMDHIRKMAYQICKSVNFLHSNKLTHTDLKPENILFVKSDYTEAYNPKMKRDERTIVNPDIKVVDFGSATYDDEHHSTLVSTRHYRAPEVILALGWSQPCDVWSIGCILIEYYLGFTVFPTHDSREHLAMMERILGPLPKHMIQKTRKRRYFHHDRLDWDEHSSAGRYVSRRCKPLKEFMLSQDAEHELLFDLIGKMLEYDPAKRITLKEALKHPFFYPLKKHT

COc1ncc2cc3cnccc3c([N+](=O)[O-])c2n1
IC50 [1]: 917 nM | IC50 [2]: 445 nM

CSc1ncc2cc3cnccc3c([N+](=O)[O-])c2n1
IC50 [2]: 221 nM

Source: ChEMBL document CHEMBL5154885, “Synthesis and biological evaluation of Haspin inhibitors: Kinase inhibitory potency and cellular activity” (Eur J Med Chem, 2022)
